Only some compounds are listed: those with a hit (about 0.92% of all), similar ones and a draw of the others.
GALK inhibitor – blocks human galactokinase activity; actives 0.007% (n = 270,000); AID 1868; Purified GALK, Kinase-Glo residual ATP luminescence; Potency, µM (top dose mostly 57.5 µM), for the others: at the top dose activity change, negative = inhibition, actives largely listed as inhibitors; P51570; note: potency is the fitted concentration of half-maximal effect; % is set by controls: 0 for no effect and ±100 for the full control effect
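Galactose (100 uM) and ATP (35 uM) were turned over by 5 nM GALK for 1 h at RT. Kinase-Glo Plus then converted the remaining ATP into a luminescent signal.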
RXFP1 agonist – activates the human relaxin receptor RXFP1 | HEK293T-RXFP1 cAMP TR-FRET, 30 min; response scale: percent of porcine relaxin response, buffer zero | Potency, µM (doses to about 57.5 µM), for inactives: at the top dose activation, usual class: activators | actives 0.3% (n = 370,000) | AID 2676; note: potency is the fitted concentration of half-maximal effect; % is set by controls: 0 for no effect and ±100 for the full control effect; nearly all actives have a fitted effect of over 60% in size
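HEK293T cells stably expressing RXFP1 were pretreated with the PDE4 inhibitor Ro 20174, exposed to compounds for 30 min at 37C, lysed, and cAMP was read by TR-FRET. Data normalized to buffer (basal) and 29 nM porcine relaxin (100%).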
KinaseGlo FLuc – Kinase-Glo luciferase inhibition (counter-screen); Q27757; actives 0.28% (n = 200,000); Kinase-Glo luciferase, ATP luminescence, 8 min; Potency, µM (doses to about 38.3 µM), inactives show top-dose activity change, negative = inhibition, actives largely listed as inhibitors; AID 1379; note: potency is the fitted concentration of half-maximal effect; % is set by controls: 0 for no effect and ±100 for the full control effect; nearly all actives have a fitted effect of over 60% in size
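Luminescence was the read-out, taken after 8-minute incubation at ambient temperature. Luciferase turned over luciferin with 10 uM ATP in imidazole pH 7.2 buffer containing KCl, MgCl2, Tween 20 and BSA.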
PKM2 activator – PKM2 (human) enzyme activation. purified PKM2, Kinase-Glo ATP luminescence, activation; response scale: 0% is enzyme alone, no compound. Potency, µM (titrated, usually from 57.5 µM), for the others: top-dose activation, usual class: activators. actives 0.34% (n = 260,000). AID 1631; note: potency is the fitted concentration of half-maximal effect; % is set by controls: 0 for no effect and ±100 for the full control effect; nearly all actives have a fitted effect of over 55% in size
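ATP formation by purified human PK-M2, quantified via coupled luciferase luminescence after 1 h at room temperature with 0.1 mM ADP and 0.5 mM PEP final.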
RXFP1 antag – antagonists of human relaxin receptor RXFP1; HEK293-RXFP1, relaxin-stimulated cAMP HTRF, 30 min; active compounds read low; actives 0.59% (n = 350,000); activity change, negative = inhibition, % at 57.5 µM;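 active = activity change of -60% or lower, but not beyond a set lower limit; inconclusive = change between -60% and -40%, or beyond the set limit; inactive = change above -40%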; note: % is set by controls: 0 for no effect and ±100 for the full control effect
miR-21 reporter – miR-21 reporter, rising signal | HeLa miR-21 FLuc reporter, luciferase, 48 h | Potency, µM (highest dose often 38.3 µM), for inactives: at the top dose reporter change, positive = more light | 340,000 tested, under 10 active | AID 2288; active = well fitted rising curve with a large enough effect; inconclusive = small, poorly fitted or top-dose-only effect; inactive = no such curve, though single readings can be large or run the other way;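 further: % of control where 0% means no effect; miR-21 action dims this reporter so a rising signal means less miR-21 action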
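Compounds were titrated across several concentrations (up to approximately 40 uM) and incubated 48 hours with HeLa miR-21-FLuc reporter cells (miR-21 target sequence downstream of FLuc, endogenous miR-21). Readout was firefly luciferase luminescence after lytic detection reagent.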
Starred values were filed as active, the others as inactive; ? = inconclusive; nt = no result. Unless noted, calls come from the whole dose curve; as a rule, active = well fitted curve in the direction sought with a large enough effect; inconclusive = small, poorly fitted or top-dose-only effect, or another doubt; inactive = no such curve, though single readings can be large; an effect the other way counts as inactive or inconclusive.

Abbreviations: A = GALK inhibitor; B = RXFP1 agonist; C = KinaseGlo FLuc; D = PKM2 activator; E = RXFP1 antag; F = miR-21 reporter
Cc1sc(C(C2C(=O)CC(C)(C)CC2=O)C2C(=O)CC(C)(C)CC2=O)cc1[N+](=O)[O-]
  A: -2%	B: -1%	C: -2%	D: 18µM*	E: -31	F: -1%
CCOc1ccc(N=C(C)C2=C(O)c3ccccc3C2=O)cc1
  A: -2%	B: 21%	C: nt	D: 1%	E: -63*	F: -62%
CC1(C)N=C(SCC(=O)Nc2ccccc2)C(c2ccc(Cl)cc2)=N1
  A: 1%	B: 4%	C: -7%	D: 3%	E: -9	F: 16%
Cc1ccc(C2=NC(C)(C)N=C2SCC(=O)Nc2ccc(Cl)cc2)cc1
  A: 0%	B: 0%	C: 2%	D: -1%	E: -64*	F: 7%
O=S(=O)(c1ccc2c(c1)OCCO2)N1CCC(n2nnc3cc(F)ccc32)CC1
  A: -2%	B: 0%	C: 2%	D: 8.9µM*	E: 4	F: 3%
O=S(=O)(c1ccc2c(c1)OCCO2)N1CCC(n2cnc3cc(F)ccc32)CC1
  A: 2%	B: 3%	C: nt	D: 7.1µM*	E: -6	F: 7%
Cc1cccc(NC(=O)CN(C)C(=O)Cc2ccc(-c3ccccc3)cc2)c1C
  A: nt	B: nt	C: nt	D: nt	E: -1	F: nt
Cc1cccc2cc3c(nc12)SC(=NCC1CCCO1)N(Cc1ccco1)C3 (stereo not drawn)
  A: 2%	B: 3%	C: nt	D: 11µM*	E: -20	F: ?
O=Cc1cn(-c2ccccc2)nc1-c1ccccc1
  A: -5%	B: 0%	C: nt	D: 0%	E: 5	F: 9%
CC1=NNC(=O)/C1=C\c1cn(-c2ccccc2)nc1-c1ccccc1
  A: 3%	B: -5%	C: -4%	D: ?	E: -73*	F: ?
COc1cccc(Cl)c1NC(=O)N1CCc2c([nH]c3ccccc23)C1C(F)(F)F (stereo not drawn)
  A: 1%	B: -2%	C: nt	D: 5%	E: -75*	F: -4%
O=C(Nc1ccccc1)N1CCc2c([nH]c3ccccc23)C1C(F)(F)F (stereo not drawn)
  A: 1%	B: 0%	C: nt	D: -1%	E: 1	F: 22%
Cn1c(=O)n(C)c2cc(S(=O)(=O)NCc3ccccc3)ccc21
  A: 4%	B: 1%	C: 13%	D: 18µM*	E: -9	F: 2%
COc1ccc(S(=O)(=O)Nc2cc3c(cc2NCc2ccccc2)n(C)c(=O)n3C)cc1
  A: nt	B: 28µM*	C: nt	D: nt	E: 4	F: -50%
Cn1c(=O)n(C)c2cc(NS(=O)(=O)c3ccc(Br)cc3)c(NCc3ccccc3)cc21
  A: nt	B: 4%	C: nt	D: nt	E: 2	F: -29%
C=CCn1c(Sc2ncc([N+](=O)[O-])s2)n[nH]c1=O
  A: 0%	B: 4%	C: nt	D: 15%	E: -80*	F: ?
O=[N+]([O-])c1cnc(Sc2ccncn2)s1
  A: -1%	B: 2%	C: nt	D: 12%	E: -15	F: ?
CC(C)OP(=O)(CP(=O)(OC(C)C)OC(C)C)OC(C)C
  A: nt	B: nt	C: nt	D: nt	E: -13	F: nt
O=C(CN1C(=O)C2CCCCC2C1=O)Nc1ccccc1N1CCCC1 (stereo not drawn)
  A: nt	B: -1%	C: nt	D: nt	E: -99*	F: nt
O=C(CN1C(=O)C2CC=CCC2C1=O)Nc1ccccc1N1CCCC1 (stereo not drawn)
  A: nt	B: 0%	C: nt	D: nt	E: -15	F: nt
CCC(Oc1ccccc1)C(=O)Nc1ccccc1N1CCCC1 (stereo not drawn)
  A: -3%	B: 2%	C: nt	D: 4%	E: -11	F: -2%
CCC(C(=O)Nc1ccccc1N1CCCC1)c1ccccc1 (stereo not drawn)
  A: -4%	B: 0%	C: nt	D: 7%	E: -68*	F: -3%
COC(=O)c1ccccc1NC(=O)CCS(=O)(=O)c1nc(-c2ccc3c(c2)OCO3)cc(C(F)(F)F)n1
  A: nt	B: 11%	C: nt	D: nt	E: -63*	F: ?
O=c1oc2cc(OCc3c(F)cccc3Cl)ccc2cc1-c1ccccn1
  A: 3%	B: -1%	C: 1%	D: -2%	E: -2	F: -4%
CCCOc1ccc2cc(-c3ccccn3)c(=O)oc2c1
  A: 9%	B: 3%	C: 13µM*	D: -40%	E: -15	F: 5%

An excerpt of these results, in CSV form:
smiles,GALK inhibitor,RXFP1 agonist,KinaseGlo FLuc,PKM2 activator,RXFP1 antag,miR-21 reporter
CC1=NNC(=O)/C1=C\c1cn(-c2ccccc2)nc1-c1ccccc1,3%,-5%,-4%,?,-73*,?
CCC(C(=O)Nc1ccccc1N1CCCC1)c1ccccc1 (stereo not drawn),-4%,0%,nt,7%,-68*,-3%
COC(=O)c1ccccc1NC(=O)CCS(=O)(=O)c1nc(-c2ccc3c(c2)OCO3)cc(C(F)(F)F)n1,nt,11%,nt,nt,-63*,?
O=C(CN1C(=O)C2CC=CCC2C1=O)Nc1ccccc1N1CCCC1 (stereo not drawn),nt,0%,nt,nt,-15,nt

(listing goes on)
Abbreviations: A = GALK inhibitor; B = RXFP1 agonist; C = KinaseGlo FLuc; D = PKM2 activator; E = RXFP1 antag; F = miR-21 reporter
CCC(Cn1nnc2ccccc2c1=O)NC(=O)Nc1cc(Cl)ccc1OC (stereo not drawn)
  A: nt	B: -9%	C: nt	D: nt	E: nt	F: ?
CCN(CCNCC(O)COCc1ccc(Cl)cc1)c1cccc(C)c1 (stereo not drawn)
  A: 1%	B: 1%	C: -1%	D: 1%	E: -70*	F: 5%
Cc1c(C(=O)N(C)C)sc2c1c(=O)n(-c1ccc(Cl)c(Cl)c1)c(=O)n2Cc1ccc(F)cc1
  A: nt	B: 3%	C: nt	D: nt	E: -16	F: 15%
Cc1ccc(Nc2c(-c3ccc(C)o3)nc3ncccn23)cc1
  A: 1%	B: 4%	C: nt	D: ?	E: 21	F: -36%
Cc1ccc(-c2nc3ncccn3c2Nc2ccccc2C)o1
  A: -1%	B: 9%	C: 2%	D: 11µM*	E: -2	F: -14%
COc1ccc(OCC(=O)NC(=S)Nc2ccc3c4c(cccc24)CC3)cc1
  A: nt	B: 20µM*	C: 7%	D: 4%	E: 13	F: -3%
Cc1ccccc1OCC(=O)NC(=S)Nc1ccc2c3c(cccc13)CC2
  A: 0%	B: 8%	C: 18%	D: -4%	E: 3	F: 1%
COc1cccc(CN2CCN(Cc3nc(C(C)C)cs3)CC2CCO)c1 (stereo not drawn)
  A: -1%	B: 1%	C: 0%	D: -5%	E: -10	F: 7%
O=C(NCc1ccccc1)C1CCN(c2ncnc3c2nc2n3CCCCC2)CC1
  A: nt	B: 3%	C: nt	D: nt	E: -2	F: -2%
NS(=O)(=O)c1ccc(CCNC(=O)C2CCN(c3ncnc4c3nc3n4CCCCC3)CC2)cc1
  A: 9%	B: 16µM*	C: nt	D: nt	E: 15	F: 0%
COc1ccc(C(=O)NCCCn2cccn2)cc1OC1CCN(C(C)=O)CC1
  A: 5%	B: 3%	C: nt	D: -1%	E: -6	F: 0%
CN(C)C(=O)c1ccc(-c2nc(N(C)C)c3ccccc3n2)cc1
  A: nt	B: nt	C: 11µM*	D: nt	E: nt	F: nt
COc1ccc(OCC(O)CNC(C)c2ccccc2)cc1 (stereo not drawn)
  A: nt	B: 5%	C: nt	D: nt	E: 7	F: -2%
CC(NCC(O)COc1ccc2ccccc2c1)c1ccccc1 (stereo not drawn)
  A: 5%	B: 0%	C: nt	D: nt	E: -87*	F: 5%
Cc1ccc(C(=O)C2=C(O)C(=O)N(CCCn3ccnc3)C2c2ccc(OC(C)C)cc2)o1 (stereo not drawn)
  A: -1%	B: 16µM*	C: -1%	D: -1%	E: 20	F: -14%
Cc1ccc(C(=O)C2=C(O)C(=O)N(Cc3cccnc3)C2c2ccc(OC(C)C)cc2)o1 (stereo not drawn)
  A: -3%	B: -1%	C: nt	D: 4%	E: 8	F: 2%
CCOc1ccc(-c2nnc(SCC(=O)NCc3ccc(Cl)cc3)o2)cc1
  A: nt	B: 2%	C: nt	D: nt	E: nt	F: -18%
COc1cccc2cc(C(=O)C3=C(O)C(=O)N(Cc4ccco4)C3c3cccnc3)oc12 (stereo not drawn)
  A: -4%	B: 25µM*	C: 3%	D: 24%	E: 8	F: -2%
COc1cccc(-c2ccc(C#N)c(SCC(=O)NCc3ccco3)n2)c1
  A: 13%	B: 35µM*	C: -3%	D: -2%	E: -5	F: -9%
COc1ccc(-c2cc(C(=O)NCc3ccco3)c3ccccc3n2)cc1OC
  A: nt	B: nt	C: nt	D: nt	E: 12	F: nt
